Data as given in patent EP0361977A2, “Peptides having T cell suppressor activity” (IMM[…] INSTITUTE, INC., priority 1988, dated 1990).

Test system: intestinal and serum enzymes
Experiment: Enzymatic stability in rat intestinal juice and human serum (HPLC)
Details: 37°C in rat intestinal juice and human serum for up to 120 minutes

## Arg-Lys-Asp-Val-Dimethylamide [reference compound]
  degradation by intestinal and serum enzymes (HPLC): totally digested after only a few seconds
